Values joined by “and” are separate entries in the source; they are usually repeats but may differ in a detail not shown here. Identical values can stand only once. Like-named read-outs stand apart in the source and are kept apart here.
Tests used:
mice = conditions: R = H column (also common oximes), cited from earlier work; for LD50 i.m. mice: number in brackets = i.m.; for LD50 i.v. mice: bispyridinium dibromides
[1] = tested on: human muscle nicotinic receptor (foetal and adult forms) in CN21 cells; experiment: Nicotinic calcium response assay in CN21 cells (Fluo-4, response to ACh); conditions: tert-butyl series R = C(CH3)3, mean ± SEM
[2] = plasma; cited from earlier work
guinea-pigs = experiment: Adverse effects of MB442 without soman challenge; conditions: 28.78 mg·kg^−1, no soman challenge
[3] = tested on: human muscle nicotinic receptor (foetal and adult forms) in CN21 cells; conditions: cited from earlier work

In the case of O/N=C/c1cc[n+](COC[n+]2ccc(/C=N/O)cc2)cc1, the LD50 i.m. mice (mice) is given as 188 mg/kg and the LD50 i.v. mice (mice) is given as 70 mg/kg.

In the case of CC(C)(C)c1cc[n+](CCC[n+]2ccc(C(C)(C)C)cc2)cc1, the “Log IC50 [M]” value ([1]; log10 value, inhibition of Ca2+ response to ACh 10 µM (~EC80), atropine 20 µM) is listed as −2.86 ± 0.16 M, the Hill slope ([1]; ACh 10 µM) is listed as −0.89 and −0.89 ± 0.10 and the “half-life (t½)” value [2] is listed as ~ 22 min.

In the case of c1cc[n+](CCCCC[n+]2ccccc2)cc1, the “adverse effects (apnoea, dyspnoea, flaccid paralysis), animals affected” value (guinea-pigs) is listed as 1 out of 3, the “Log IC50 [M]” value ([3]; log10 value, unsubstituted series R = H, ACh 10 µM, mean ± SEM) is listed as −2.56 ± 0.16 M and the Hill slope ([3]; unsubstituted series R = H, mean ± SEM) is listed as −0.60 and −0.60 ± 0.13.

For NC(=O)c1cc[n+](COC[n+]2ccccc2/C=N/O)cc1, the LD50 i.m. mice (mice) is given as 671 mg/kg, the LD50 i.v. mice (mice) is given as 178 mg/kg and the “log IC50” value ([3]; CN21 cell line) is given as −2.76.

In the case of COc1cc2c3cc1Oc1cc(ccc1O)C[C@@H]1c4c(cc(OC)c(O)c4Oc4ccc(cc4)C[C@@H]3N(C)CC2)CC[N+]1(C)C, the “block of the nicotinic Ca2+ response to ACh” value ([3]; 50 µM, atropine 20 µM present) is listed as “blocked completely”.

Source: paper PMC11856326, “Structure-activity studies of bispyridinium antinicotinics to select candidates to treat soman intoxication as part of a combined therapy” (2025)
